# Ab-95 light chain CDR variants: yeast mating affinities

The measurements come from Engelhart et al. 2022 (doi:10.1038/s41597-022-01779-4) through the FLAb antibody collection.

The target is the same throughout: PDVDLGDISGINAS, from the HR2 region of SARS-CoV-2 spike.

Each scFv is VH, a (GGGGS)3 linker, VL, as in the parent Ab-95, and differs from it in the CDRs of the light chain only.
VH: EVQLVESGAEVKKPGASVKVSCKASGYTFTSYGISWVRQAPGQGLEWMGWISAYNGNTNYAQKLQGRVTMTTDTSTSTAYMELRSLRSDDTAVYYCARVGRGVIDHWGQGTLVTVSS
VL: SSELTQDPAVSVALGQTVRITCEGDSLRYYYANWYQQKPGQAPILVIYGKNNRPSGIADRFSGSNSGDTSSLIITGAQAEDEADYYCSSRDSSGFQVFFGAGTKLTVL

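The starting antibody came from a phage panning campaign against this peptide. Variants in AAYL52 differ from the parent at up to three CDR positions; double and triple changes were sampled at random. The scFvs were displayed on barcoded MATa yeast, the peptide on MATalpha yeast. Binding brings cells together so that they mate, and sequencing counts the barcode pairs among the diploids. Read counts were normalised to the haploid input and turned into Kd by a linear fit to BCL2-family pairs of known affinity, for each replicate. Each pool was mated in three replicate cultures.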

Sequences are complete VL domains.
This list gathers variants with a substitution at Q96 (VL, numbered from residue 1).
Each Kd is an estimate from the mating assay, the geometric mean of the replicates in which the pair was seen; lower is stronger.
Where no diploid with the target was found in any replicate, the entry reads "nd": below detection, most likely a poor binder, though not proof of it.
Three control strains display no target. For library AAYL52, 28% of the pairings with them gave a signal, with a median of 8.2 µM and one signal in twenty below 800 nM, so weak values seen in few replicates may be background.
Parent in this assay: reference entry 200 nM, copy in this library 180 nM.

VL	apparent Kd	seen in
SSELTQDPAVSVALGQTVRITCEGDSLRYYYANWYQQKPGQAPILVIYHKNNRPSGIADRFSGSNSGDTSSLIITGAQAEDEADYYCSSRDSSLFAVFFGAGTKLTVL	7.8 µM	3 of 3
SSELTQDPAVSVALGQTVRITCEGDGLRYYYANWYQQKPGQAPILVIYGKNNRPSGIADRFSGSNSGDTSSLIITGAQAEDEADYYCSSRDSSGFVVEFGAGTKLTVL	490 nM	3 of 3
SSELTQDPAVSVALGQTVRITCEGDSLDYYYANWYQQKPGQAPILVIYGKNNRPSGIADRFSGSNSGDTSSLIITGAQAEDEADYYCSSRDSSGFNVFFGAGTKLTVL	90 nM	3 of 3
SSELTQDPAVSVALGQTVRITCEGDSLRYYYANWYQQKPGQAPILVIYGLNNRHSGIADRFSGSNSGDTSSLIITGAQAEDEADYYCSSRDSSGFCVFFGAGTKLTVL	2.7 µM	1 of 3
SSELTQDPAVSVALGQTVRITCEGDSLRYTYANWYQQKPGQAPILVIYGKNNRPSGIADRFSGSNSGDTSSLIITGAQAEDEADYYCSSRVSSGFAVFFGAGTKLTVL	nd	0 of 3
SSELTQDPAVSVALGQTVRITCEGDSLRYYYANWYQQKPGQAPILVIYGKNNRPSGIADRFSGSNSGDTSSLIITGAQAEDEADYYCSSRDSQGFRVMFGAGTKLTVL	1.6 µM	3 of 3
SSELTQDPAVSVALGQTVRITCCGDSLRYYYANWYQQKPGQAPILVIYGKNNRPSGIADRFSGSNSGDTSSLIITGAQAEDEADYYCSSHDSSGFPVFFGAGTKLTVL	1.9 µM	2 of 3
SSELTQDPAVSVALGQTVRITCEGDSLRYYYANWYQQKPGQAPILVIYGKNNRPSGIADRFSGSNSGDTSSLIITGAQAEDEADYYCSLRDSSVFPVFFGAGTKLTVL	200 nM	3 of 3
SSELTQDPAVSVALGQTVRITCEGDSLEYYYANWYQQKPGQAPILVIYGKNNRPSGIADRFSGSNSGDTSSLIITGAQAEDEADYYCSSRDSSMFCVFFGAGTKLTVL	320 nM	3 of 3
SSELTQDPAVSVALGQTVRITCEGDSLRYYYAYWYQQKPGQAPILVIYGKNNRPSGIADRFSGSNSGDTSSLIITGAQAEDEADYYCSSRDSSGFLVFFGAGTKLTVL	2.3 µM	3 of 3
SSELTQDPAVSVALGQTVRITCEGDSLRYYYANWYQQKPGQAPILVIYGKNNRPSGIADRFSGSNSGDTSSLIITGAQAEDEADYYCSSRDSSPFHVFFGAGTKLTVL	400 nM	3 of 3
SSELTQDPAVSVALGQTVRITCEGDNNRYYYANWYQQKPGQAPILVIYGKNNRPSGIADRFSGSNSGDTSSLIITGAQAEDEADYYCSSRDSSGFLVFFGAGTKLTVL	3.6 µM	3 of 3
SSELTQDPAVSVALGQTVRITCEGMSLRYYYANWYQQKPGQAPILVIYGKNNRPSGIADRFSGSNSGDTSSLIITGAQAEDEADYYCSSRDSSGFWVFFGAGTKLTVL	330 nM	3 of 3
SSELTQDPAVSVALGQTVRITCEGDSLRYYYAMWYQQKPGQAPILVIYGKNNRPSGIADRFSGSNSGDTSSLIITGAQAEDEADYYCSSRDSSGHYVFFGAGTKLTVL	15 µM	2 of 3
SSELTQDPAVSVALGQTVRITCEGDSLRYYYANWYQQKPGQAPILVIYGDNNRPSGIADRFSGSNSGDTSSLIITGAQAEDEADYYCSSRDSWGFNVFFGAGTKLTVL	730 nM	3 of 3
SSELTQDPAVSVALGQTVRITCEGDSLRYYYANWYQQKPGQAPILVIYGINNRPSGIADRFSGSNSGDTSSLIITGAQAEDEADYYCSSRDSSGFKNFFGAGTKLTVL	26 µM	2 of 3
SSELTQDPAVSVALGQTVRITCEGDYLRYYEANWYQQKPGQAPILVIYGKNNRPSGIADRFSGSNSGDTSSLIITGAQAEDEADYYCSSRDSSGFGVFFGAGTKLTVL	3.2 µM	1 of 3
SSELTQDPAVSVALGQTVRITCEGDSLRYPYANWYQQKPGQAPILVIYGKNNRPSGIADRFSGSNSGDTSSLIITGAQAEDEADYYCSSRDSSGFNVCFGAGTKLTVL	20 nM	3 of 3
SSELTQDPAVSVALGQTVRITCEGDSERYYYANWYQQKPGQAPILVIYGKNNRPSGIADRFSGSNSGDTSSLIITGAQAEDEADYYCSSRDSSGFRVIFGAGTKLTVL	8.9 µM	3 of 3
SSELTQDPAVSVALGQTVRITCEGDSLRYYLANWYQQKPGQAPILVIYGKNNDPSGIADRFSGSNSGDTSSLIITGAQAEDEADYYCSSRDSSGFVVFFGAGTKLTVL	10 µM	1 of 3

Picked from the list: the 2 lowest averages where every replicate gave a value.

VL	apparent Kd	seen in
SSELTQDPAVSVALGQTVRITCEGDSLRYPYANWYQQKPGQAPILVIYGKNNRPSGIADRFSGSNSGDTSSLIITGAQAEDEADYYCSSRDSSGFNVCFGAGTKLTVL	20 nM	3 of 3
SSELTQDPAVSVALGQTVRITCEGDSLDYYYANWYQQKPGQAPILVIYGKNNRPSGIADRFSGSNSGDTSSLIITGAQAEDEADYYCSSRDSSGFNVFFGAGTKLTVL	90 nM	3 of 3